# Experimental data from patent publication US9248200B2, “Method of delivering an anti-cancer agent to a cell” (Agency for Science, Technology and Research, priority 2007, dated 2016).
# Tested on: SKBR-3 (HER2-overexpressing human breast cancer cell line)
# Assay: Cancer cell proliferation assessment (Alamar Blue)
# Type: cell-based
# Details: SKBR-3 cells; Herceptin 0.5 mg/ml; FIG. 4
# Method: Cancer Cell Proliferation Assessment: SKBR-3 cells (ATCC, HTB3O, USA) were plated (1×10^4 cells in McCoy's 5 A medium/well) in quintuplicate and octuplicate for samples and control, respectively, in 96-well microplates and allowed to adhere overnight. […] At the time points indicated, the culture media were replaced by the phenol red-free media containing 10% of Alamar Blue. Cell proliferation was determined from the reduction in dye absorbance at 570 and 600 nm after 4 h of incubation.
substance,measurement,value
Herceptin: humanized monoclonal antibody against the HER2/neu (erbB2) receptor,inhibition of cell growth,inhibited
